Reference: publication PMC4740303, “The Sigma-2 Receptor and Progesterone Receptor Membrane Component 1 are Different Binding Sites Derived From Independent Genes” (EBioMedicine, 2015)

Key:
S2R [1] = target: T1, S2R (Mus musculus, UniProt Q8VD00); test: [^125I]-IAF photolabeling of the S2R in NSC34 cell membranes; type: binding; conditions: NSC34 membranes (control and PGRMC1 knockout); 5 μM
T1 construct: Membranes (28 μg total proteins per reaction) prepared from NSC34 cells of controls, PGRMC1 knockout, or PGRMC1-3 × HA overexpression; endogenous in cells; host or cells: NSC34 cells (control, PGRMC1 knockout clones 38 and 207, PGRMC1-3xHA overexpressing)
T1 sequence (Q8VD00 1-176): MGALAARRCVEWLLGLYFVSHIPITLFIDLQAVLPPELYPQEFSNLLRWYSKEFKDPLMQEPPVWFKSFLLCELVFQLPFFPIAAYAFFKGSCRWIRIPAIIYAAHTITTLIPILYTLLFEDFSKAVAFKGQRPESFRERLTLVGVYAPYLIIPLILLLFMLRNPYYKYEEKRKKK
Description: Cell membrane preparation was performed following our established method ([Guo et al., 2012]). Briefly, cell pellets were suspended in PBS and sonicated on ice using the following settings: 5 sets (10 strokes/set) at duty cycle = 50, output control = 5. Cell homogenates were centrifuged at 8000 × g for 10 min, and the resulting supernatant was collected and subjected to ultracentrifugation at 100,000 × g for 1 h. The supernatant was discarded and the pellet was gently washed twice with ice-cold PBS. The pellet was then resuspended in PBS and sonicated (3 sets, 10 strokes/set at duty cycle = 50, output control = 5) to homogeneity. Protein concentration was then measured using the standard Bradford reagent (Sigma-Aldrich, St. Louis, MO).
The synthesis of [^125I]-IAF and photolabeling was performed according to our published method ([Pal et al., 2007]). […] [^125I]-IAF was then added (final 1 nM) and incubated for another 40 min with gentle shaking in the dark. Photoactivation of [^125I]-IAF was performed by exposing the samples to a high-pressure AH-6 mercury lamp for 5 s and Laemmli buffer was immediately added to each sample. The samples were then resolved on a 16 × 18 cm SDS gel with 6–18% acrylamide gradient. The gel was dried and exposed to a phosphor screen for 24–48 h and autoradiograms were recorded using a Phosphoimager (Molecular Dynamics).

S2R [2] = target: T1, S2R; set-up: method as in Pal et al., 2007; conditions: earlier work of the group; ref Pal et al., 2007; cited from earlier work
S2R [3] = target: T1, S2R; conditions: ref Hellewell et al., 1994; cited from earlier work

CC(C)=CCN1CC[C@]2(C)c3cc(O)ccc3C[C@H]1[C@H]2C [(+)-pentazocine]
protection of [^125I]-IAF photolabeling of the S2R (~18 kDa band) (S2R [1]): protected by DTG but not by (+)-pentazocine | protection of the [^125I]-IAF photolabeled S2R band (S2R [2]): but not (+)-pentazocine | binding to the S2R (S2R [3]): does not bind
